Amino acid sequences for entries named in this document (tags omitted). Residues count along the entry.
UniProt P09874, whole entry: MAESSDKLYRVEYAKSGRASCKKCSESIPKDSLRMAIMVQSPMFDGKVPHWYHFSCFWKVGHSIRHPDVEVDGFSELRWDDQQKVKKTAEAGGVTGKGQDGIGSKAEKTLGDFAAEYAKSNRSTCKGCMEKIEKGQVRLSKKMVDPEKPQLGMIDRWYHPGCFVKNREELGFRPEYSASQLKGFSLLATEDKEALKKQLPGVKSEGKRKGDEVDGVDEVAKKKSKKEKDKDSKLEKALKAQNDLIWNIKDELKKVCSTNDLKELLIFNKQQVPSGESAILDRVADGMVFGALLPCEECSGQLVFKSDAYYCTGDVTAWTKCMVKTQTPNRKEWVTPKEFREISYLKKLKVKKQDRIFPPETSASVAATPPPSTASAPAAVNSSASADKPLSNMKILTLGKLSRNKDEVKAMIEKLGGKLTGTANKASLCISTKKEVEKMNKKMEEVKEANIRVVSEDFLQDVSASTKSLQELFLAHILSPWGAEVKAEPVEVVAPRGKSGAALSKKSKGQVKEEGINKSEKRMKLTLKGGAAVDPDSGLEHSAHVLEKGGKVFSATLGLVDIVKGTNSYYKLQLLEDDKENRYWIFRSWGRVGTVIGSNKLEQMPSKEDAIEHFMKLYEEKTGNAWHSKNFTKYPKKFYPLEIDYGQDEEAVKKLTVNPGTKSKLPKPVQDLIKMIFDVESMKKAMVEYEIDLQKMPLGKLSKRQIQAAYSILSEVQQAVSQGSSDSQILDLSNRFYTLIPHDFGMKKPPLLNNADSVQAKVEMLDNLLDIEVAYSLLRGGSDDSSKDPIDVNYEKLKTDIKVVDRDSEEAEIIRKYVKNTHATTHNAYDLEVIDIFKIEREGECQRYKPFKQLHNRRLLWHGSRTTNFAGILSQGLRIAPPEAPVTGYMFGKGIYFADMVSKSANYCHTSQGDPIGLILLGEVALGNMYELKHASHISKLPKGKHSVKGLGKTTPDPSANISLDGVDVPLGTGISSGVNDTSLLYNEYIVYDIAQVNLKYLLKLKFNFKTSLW
UniProt Q9H2K2, 959-1164: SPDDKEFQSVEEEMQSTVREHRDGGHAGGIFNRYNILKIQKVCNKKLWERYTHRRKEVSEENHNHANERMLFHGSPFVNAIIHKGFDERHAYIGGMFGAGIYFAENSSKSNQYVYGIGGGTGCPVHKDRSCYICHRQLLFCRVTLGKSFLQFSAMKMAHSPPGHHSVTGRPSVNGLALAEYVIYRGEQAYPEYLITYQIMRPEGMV

In patent US9181266B2, “2-piperidin-1-yl-acetamide compounds for use as tankyrase inhibitors” (NOVARTIS AG, priority 2011, dated 2015):

Each compound was assayed against Human PARP1 (Homo sapiens (Human), UniProt P09874) (assay: PARP1 autoparsylation assay (LC/MS detection of nicotinamide)). Settings: 20 nM enzyme, 250 μM β-NAD+, 60 min.
Format: biochemical
Protocol: The autoparsylation activity of the TNKS 1/2 or PARP1/2 enzymes was measured by the liquid chromatography-mass spectrometry (LC/MS) detection of nicotinamide as readout. Compound activity in inhibiting the TNKS and PARP autoparsylation was evaluated by IC50 measurements.

Row | IC50 | Compound
1 | 10400 ± 1800 nM | O=C(CN1CCC(C(=O)c2ccc(F)cc2)CC1)NCc1nc2c(c(=O)[nH]1)COCC2 [Example 1, 2-(4-(4-Fluorobenzoyl)piperidin-1-yl)-N-((4-oxo-4,5,7,8-tetrahydro-3H-pyrano[4,3-d]pyrimidin-2-yl)methyl)acetamide]

Each compound was assayed against tankyrase 2 protein PARP domain, TNKS2P (Homo sapiens (Human), UniProt Q9H2K2) (assay: TNKS2 autoparsylation assay (LC/MS detection of nicotinamide)). Settings: read-out: TNKS2 AP IC50, 20 nM enzyme, 250 μM β-NAD+, 60 min.

Row | Compound | IC50
2 | COc1ccc(C(=O)C2CCN(CC(=O)N(Cc3nc4c(c(=O)[nH]3)COCC4)CC3CC3)CC2)cc1 [Example 5, N-Cyclopropylmethyl-2-[4-(4-methoxy-benzoyl)-piperidin-1-yl]-N-(4-oxo-3,5,7,8-tetrahydro-4H-pyrano[4,3-d]pyrimidin-2-ylmethyl)-acetamide] | 6 ± 1 nM
3 | O=C(CN1CCC(C(=O)c2ccc(F)cc2)CC1)NCc1nc2c(c(=O)[nH]1)COCC2 [Example 1, 2-(4-(4-Fluorobenzoyl)piperidin-1-yl)-N-((4-oxo-4,5,7,8-tetrahydro-3H-pyrano[4,3-d]pyrimidin-2-yl)methyl)acetamide] | 23 ± 9 nM
4 | CC(C)CN(Cc1nc2c(c(=O)[nH]1)COCC2)C(=O)CN1CCC(C(=O)c2ccc(F)cc2)CC1 [Example 26, 2-(4-(4-Fluorobenzoyl)piperidin-1-yl)-N-isobutyl-N-((4-oxo-4,5,7,8-tetrahydro-3H-pyrano[4,3-d]pyrimidin-2-yl)methyl)acetamide] | 18 ± 2 nM
5 | O=C(c1ccc(F)cc1)C1CCN(CC(=O)N(Cc2ccccn2)Cc2nc3c(c(=O)[nH]2)COCC3)CC1 [Example 22, 2-(4-(4-Fluorobenzoyl)piperidin-1-yl)-N-((4-oxo-4,5,7,8-tetrahydro-3H-pyrano[4,3-d]pyrimidin-2-yl)methyl)-N-(pyridin-2-ylmethyl)acetamide] | 31 ± 2 nM
6 | O=C(c1ccc(F)cc1)C1CCN(CC(=O)N(Cc2nc3c(c(=O)[nH]2)COCC3)Cc2cccs2)CC1 [Example 13, 2-(4-(4-Fluorobenzoyl)piperidin-1-yl)-N-((4-oxo-4,5,7,8-tetrahydro-3H-pyrano[4,3-d]pyrimidin-2-yl)methyl)-N-(thiophen-2-ylmethyl)acetamide] | 7.5 ± 2 nM
7 | O=C(c1ccc(F)cc1)C1CCN(CC(=O)N(Cc2nc3c(c(=O)[nH]2)COCC3)CC2CC2)CC1 [Example 24, N-Cyclopropylmethyl-2-[4-(4-fluoro-benzoyl)-piperidin-1-yl]-N-(4-oxo-3,5,7,8-tetrahydro-4H-pyrano[4,3-d]pyrimidin-2-ylmethyl)-acetamide] | 10.7 ± 4.9 nM

The remaining lines, values ahead:

Row | IC50 | Compound
8 | 11 ± 1 nM | CCCN(Cc1nc2c(c(=O)[nH]1)COCC2)C(=O)CN1CCC(C(=O)c2ccc(F)cc2)CC1 [Example 34, 2-(4-(4-Fluorobenzoyl)piperidin-1-yl)-N-((4-oxo-4,5,7,8-tetrahydro-3H-pyrano[4,3-d]pyrimidin-2-yl)methyl)-N-propylacetamide]
9 | 16 ± 1 nM | O=C(c1ccc(F)cc1)C1CCN(CC(=O)N(Cc2ccccc2)Cc2nc3c(c(=O)[nH]2)COCC3)CC1 [Example 38, N-Benzyl-2-(4-(4-fluorobenzoyl)piperidin-1-yl)-N-((4-oxo-4,5,7,8-tetrahydro-3H-pyrano[4,3-d]pyrimidin-2-yl)methyl)acetamide]
10 | 57 ± 1 nM | CN(Cc1nc2c(c(=O)[nH]1)COCC2)C(=O)CN1CCC(C(=O)c2ccc(F)cc2)CC1 [Example 30]
